# Experimental data taken from patent publication US9422333B2, “HCV protease inhibitors and uses thereof” (Celgene Avilomics Research, Inc., priority 2008, dated 2016).
# The chains behind the UniProt entries cited, without tags or fusion partners.
# UniProt P26663, whole entry, looked up: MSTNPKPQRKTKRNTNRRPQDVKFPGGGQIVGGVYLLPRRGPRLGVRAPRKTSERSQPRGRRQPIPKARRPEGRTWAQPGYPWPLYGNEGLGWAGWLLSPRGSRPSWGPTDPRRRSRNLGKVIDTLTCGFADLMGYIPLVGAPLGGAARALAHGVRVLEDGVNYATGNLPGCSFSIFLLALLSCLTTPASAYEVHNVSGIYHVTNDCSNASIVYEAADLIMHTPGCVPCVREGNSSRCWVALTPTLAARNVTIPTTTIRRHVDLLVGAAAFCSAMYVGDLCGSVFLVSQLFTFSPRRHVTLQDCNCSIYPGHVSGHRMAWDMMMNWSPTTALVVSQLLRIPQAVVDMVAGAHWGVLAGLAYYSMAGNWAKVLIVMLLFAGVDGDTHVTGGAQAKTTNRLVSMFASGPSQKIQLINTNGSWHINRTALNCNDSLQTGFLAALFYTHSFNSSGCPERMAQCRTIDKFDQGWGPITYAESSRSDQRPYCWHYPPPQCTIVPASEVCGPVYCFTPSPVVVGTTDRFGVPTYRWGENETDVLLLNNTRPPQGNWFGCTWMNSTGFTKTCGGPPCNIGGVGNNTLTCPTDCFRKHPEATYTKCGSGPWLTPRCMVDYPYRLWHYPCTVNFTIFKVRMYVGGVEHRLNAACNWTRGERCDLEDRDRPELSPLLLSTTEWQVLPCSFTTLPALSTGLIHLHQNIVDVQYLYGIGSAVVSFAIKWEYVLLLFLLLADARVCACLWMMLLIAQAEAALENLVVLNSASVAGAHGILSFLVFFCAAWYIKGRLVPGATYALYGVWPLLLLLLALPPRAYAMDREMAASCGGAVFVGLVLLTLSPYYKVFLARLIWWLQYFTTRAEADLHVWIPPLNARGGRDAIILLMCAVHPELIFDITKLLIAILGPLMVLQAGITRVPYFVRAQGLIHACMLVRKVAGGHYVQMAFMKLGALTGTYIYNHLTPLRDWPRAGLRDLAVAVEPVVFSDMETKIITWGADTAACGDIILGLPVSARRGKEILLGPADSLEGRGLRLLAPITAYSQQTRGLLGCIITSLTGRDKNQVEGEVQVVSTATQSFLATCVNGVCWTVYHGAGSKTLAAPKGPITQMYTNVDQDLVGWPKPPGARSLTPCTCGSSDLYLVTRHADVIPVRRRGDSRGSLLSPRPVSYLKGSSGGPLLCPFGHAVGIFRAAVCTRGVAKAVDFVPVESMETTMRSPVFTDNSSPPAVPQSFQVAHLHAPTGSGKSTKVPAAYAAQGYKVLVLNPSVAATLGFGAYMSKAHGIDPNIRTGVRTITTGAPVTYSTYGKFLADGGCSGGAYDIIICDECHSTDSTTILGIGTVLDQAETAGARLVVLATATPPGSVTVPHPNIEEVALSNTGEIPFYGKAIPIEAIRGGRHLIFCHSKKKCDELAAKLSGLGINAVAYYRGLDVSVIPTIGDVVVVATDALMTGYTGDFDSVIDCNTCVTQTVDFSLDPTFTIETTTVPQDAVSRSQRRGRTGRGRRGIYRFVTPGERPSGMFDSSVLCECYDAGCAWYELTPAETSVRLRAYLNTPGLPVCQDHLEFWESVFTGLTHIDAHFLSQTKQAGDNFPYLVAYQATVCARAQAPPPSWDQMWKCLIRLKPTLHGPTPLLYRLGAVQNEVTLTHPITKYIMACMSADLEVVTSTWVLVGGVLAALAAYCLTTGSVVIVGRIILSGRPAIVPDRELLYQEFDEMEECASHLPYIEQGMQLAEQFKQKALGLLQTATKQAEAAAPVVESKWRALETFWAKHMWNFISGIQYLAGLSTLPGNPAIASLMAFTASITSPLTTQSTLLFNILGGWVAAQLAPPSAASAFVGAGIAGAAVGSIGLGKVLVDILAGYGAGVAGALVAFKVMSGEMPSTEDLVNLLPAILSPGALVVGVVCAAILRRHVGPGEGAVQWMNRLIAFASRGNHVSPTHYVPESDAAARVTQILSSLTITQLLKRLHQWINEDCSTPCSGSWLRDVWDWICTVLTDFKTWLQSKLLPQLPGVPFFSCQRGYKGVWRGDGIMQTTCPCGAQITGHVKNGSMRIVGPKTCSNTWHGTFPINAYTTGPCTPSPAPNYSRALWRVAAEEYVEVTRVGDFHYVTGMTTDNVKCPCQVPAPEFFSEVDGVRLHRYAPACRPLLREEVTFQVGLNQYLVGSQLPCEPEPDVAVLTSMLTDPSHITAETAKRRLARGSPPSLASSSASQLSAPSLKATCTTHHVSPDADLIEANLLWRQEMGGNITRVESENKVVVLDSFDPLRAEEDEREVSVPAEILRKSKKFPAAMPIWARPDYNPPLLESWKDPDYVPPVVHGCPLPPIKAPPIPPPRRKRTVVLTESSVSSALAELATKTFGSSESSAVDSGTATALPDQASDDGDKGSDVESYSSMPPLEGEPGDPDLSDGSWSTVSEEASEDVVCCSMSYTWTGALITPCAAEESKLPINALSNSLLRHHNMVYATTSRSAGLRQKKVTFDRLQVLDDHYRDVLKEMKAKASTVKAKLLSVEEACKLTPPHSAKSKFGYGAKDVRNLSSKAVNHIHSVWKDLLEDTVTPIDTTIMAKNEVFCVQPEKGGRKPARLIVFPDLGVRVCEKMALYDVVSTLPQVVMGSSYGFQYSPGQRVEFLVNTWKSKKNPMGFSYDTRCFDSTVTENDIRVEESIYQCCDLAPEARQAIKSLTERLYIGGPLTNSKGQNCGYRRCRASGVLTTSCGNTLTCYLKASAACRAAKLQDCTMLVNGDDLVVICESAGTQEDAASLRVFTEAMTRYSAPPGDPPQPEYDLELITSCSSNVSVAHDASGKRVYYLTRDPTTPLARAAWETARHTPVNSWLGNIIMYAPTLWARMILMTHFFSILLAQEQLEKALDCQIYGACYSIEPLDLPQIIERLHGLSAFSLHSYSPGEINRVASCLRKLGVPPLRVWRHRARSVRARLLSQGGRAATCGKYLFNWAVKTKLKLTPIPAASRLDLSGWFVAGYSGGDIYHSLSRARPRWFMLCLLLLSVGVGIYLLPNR
# Target: HCV NS3/4A 1b protease wild type (Hepatitis C virus genotype 1b (isolate BK) (HCV), UniProt P26663)
# Test: HCV protease FRET assay for WT and mutated NS3/4A 1b enzymes (IC50_APP)
# Format: biochemical
# Conditions: no pre-incubation, read-out: IC50_APP (apparent IC50)
compound,measurement,value
"C=CC(=O)NC[C@H](NC(=O)[C@@H](NC(=O)c1cnccn1)C1CCCCC1)C(=O)N1C[C@@H]2CCC[C@@H]2[C@H]1C(=O)N[C@@H](CCC)C(OC(=O)C(F)(F)F)C(=O)NC1CC1 (stereo in doubt) [Compound I-23, (S)-3-((1S,3aR,6aS)-2-((S)-3-acrylamido-2-((S)-2-cyclohexyl-2-(pyrazine-2-carboxamido)acetamido)propanoyl)octahydrocyclopenta[c]pyrrole-1-carboxamido)-1-(cyclopropylamino)-1-oxohexan-2-yl 2,2,2-trifluoroacetate]",IC50,> 0.111 µM
